This test has as its target human JAK1 (a.a. 837-1142) (Homo sapiens, UniProt P23458). Briefly: In vitro JAK kinase assay (HTRF), JAK1. Conditions: 1 mM ATP. The test is classed as biochemical. A general note: Time-resolved FRET reads energy transfer from a long-lived donor to a nearby acceptor.

Here are results for one compound from patent US11103510B2, “JAK1 pathway inhibitors for the treatment of cytokine-related disorders” (Incyte Corporation, priority 2018, dated 2021).

The IC50 is the midpoint of a concentration-inhibition curve. Low values mean inhibition by little substance, high ones a need for much substance.

Each structure is given as a SMILES string. Where only a bound is given, the exact number is not on record here.

`CN(C)Cc1cc(F)cc(OC2CCN(CC(CC#N)n3cc(-c4ncnc5[nH]ccc45)cn3)CC2)c1` (single isomer, unassigned) [Compound 14, 4-(4-{3-[(dimethylamino)methyl]-5-fluorophenoxy}piperidin-1-yl)-3-[4-(7H-pyrrolo[2,3-d]pyrimidin-4-yl)-1H-pyrazol-1-yl]butanenitrile] came in with an IC50 of less than 0.01 µM.
